The source of these data is patent US6413537B1, “Nystatin formulation having reduced toxicity” (Wisconsin Alumni Research Foundation, priority 2000, dated 2002).

This data set deals with erythrocytes (red blood cells). The following applies: no nystatin, FIG. 1.

Turning to sodium deoxycholate [NADC], the “concentration of surfactant alone causing 50% hemolysis” value was “about 200 μg/mL”.
